From patent US20250011272A1, “LONG-CHAIN COMPOUND THAT ACTS ON ACLY, PREPARATION METHOD THEREFOR AND USE THEREOF” (SHANGHAIINSTITUTE OF MATERIA MEDICA, CHINESE ACADEMY OF …, priority 2021, published 2025)

Amino acid sequences for entries named in this document (tags omitted).
UniProt P53396, whole entry: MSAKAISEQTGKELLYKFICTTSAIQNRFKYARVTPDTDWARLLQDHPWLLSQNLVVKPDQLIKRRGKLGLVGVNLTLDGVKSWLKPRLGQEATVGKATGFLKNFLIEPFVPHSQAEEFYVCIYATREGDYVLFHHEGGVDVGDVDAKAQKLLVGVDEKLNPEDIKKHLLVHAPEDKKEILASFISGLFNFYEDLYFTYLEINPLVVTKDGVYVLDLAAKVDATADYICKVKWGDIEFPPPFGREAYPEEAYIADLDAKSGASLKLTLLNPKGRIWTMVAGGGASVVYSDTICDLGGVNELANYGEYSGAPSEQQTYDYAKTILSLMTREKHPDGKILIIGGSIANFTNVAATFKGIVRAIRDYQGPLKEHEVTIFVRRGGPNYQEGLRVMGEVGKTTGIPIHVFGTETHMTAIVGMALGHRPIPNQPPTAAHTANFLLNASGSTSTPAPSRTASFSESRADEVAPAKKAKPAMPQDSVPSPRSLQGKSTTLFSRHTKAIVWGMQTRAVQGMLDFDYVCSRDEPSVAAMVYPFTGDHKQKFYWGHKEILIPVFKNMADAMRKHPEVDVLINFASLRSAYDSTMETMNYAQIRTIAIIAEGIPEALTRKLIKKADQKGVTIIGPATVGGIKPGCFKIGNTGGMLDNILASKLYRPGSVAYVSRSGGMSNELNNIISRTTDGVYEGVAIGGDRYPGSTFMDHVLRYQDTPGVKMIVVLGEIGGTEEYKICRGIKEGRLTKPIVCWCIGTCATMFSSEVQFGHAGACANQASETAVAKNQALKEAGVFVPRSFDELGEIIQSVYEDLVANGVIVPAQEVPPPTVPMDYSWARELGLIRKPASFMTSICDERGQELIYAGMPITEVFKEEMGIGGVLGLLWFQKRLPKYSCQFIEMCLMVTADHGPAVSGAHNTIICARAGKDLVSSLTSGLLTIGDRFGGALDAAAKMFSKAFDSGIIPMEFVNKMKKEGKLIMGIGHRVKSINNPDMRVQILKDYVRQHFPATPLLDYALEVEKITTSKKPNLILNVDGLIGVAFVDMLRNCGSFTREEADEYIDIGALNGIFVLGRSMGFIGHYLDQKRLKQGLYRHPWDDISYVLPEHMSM

Target: Human ACLY (Homo sapiens (Human), UniProt P53396)
Experiment: ACLY enzyme activity test (ADP-Glo luminescence)
Settings: read-out: IC50 (μM) Human ACLY, 37° C., 30 minutes
Description: • Instrument: Envision (PerkinElmer, USA) • Materials: Acl—human ACLY/acly/ATP citrate lyase protein (His tag) was purchased from Sino Biological; kinase assay kit ADP-GLO (promega #V9102).
Experimental principle: In this experiment, the ATP-dependent citrate lyase ACL catalyzes the conversion of citrate to acetyl coenzyme A, which in turn produces malonyl coenzyme A, a precursor molecule for fatty acid synthesis, and this reaction is accompanied by ATP depletion, so the change in ATP can be detected using the ADP-Glo Kinase Assay (#V9102) to indirectly reflect the inhibitory effect of the compound on the enzymatic activity of ACL. This kinase detection kit can quantitatively determine the amount of ADP catalyzed by ACLY enzyme activity. (First, the compound, the enzyme and the substrate are incubated at 37 degrees for half an hour, ADP-Glo& #V9102; reagent is added and incubated for half an hour to terminate the reaction and consume the remaining ATP; then the kinase detection reagent is added (which converts the ADP to ATP while also detecting the newly synthesized ATP using the coupled […] reaction) and incubated for half an hour. The value is read by using Envision.
Experimental method: ADP Glo luminescence method was used for determination. […] The luminous signal was detected using Envision (PerkinElmer, USA). […]

**Q.** How did the IC50 turn out when `O=C(O)C1(CCCCCC/C=C\CCCCCCC2(C(=O)OCCC34CC5CC(CC(C5)C3)C4)C=CCC2)C=CCC1` (stereo not shown) was run?
**A.** The IC50 was 4.9 µM.
